Laboratory results published in patent US5411733A (priority 1992, dated 1995).

Tested on: CMV
Assay type: cell-based

| Structure (SMILES) | influence on CMV proliferation |
| --- | --- |
| Cn1cnc([N+](=O)[O-])c1Sc1ncnc2nc[nH]c12 [azathioprine] | inhibited CMV proliferation |
| C[C@]12C=CC(=O)C=C1CC[C@@H]1[C@@H]2[C@@H](O)C[C@@]2(C)[C@H]1CC[C@]2(O)C(=O)CO [predonine] | accelerated CMV proliferation |
